# Source: patent US20260159561A1, “C-terminal CDNF and MANF fragments, pharmaceutical compositions comprising same and uses thereof” (MyNeuroCure Oy, priority 2017, published 2026)
# Test: Blood-brain barrier penetration study in rats
# Details: subcutaneous injection, brain dissected 2 hours later
substance,measurement,value
"CDNF: cerebral dopamine neurotrophic factor; mature human CDNF, SEQ ID NO: 7, 161 amino acids",blood-brain-barrier penetration (radioactivity in brain),in contrast to full-length CDNF the fragment is capable of penetrating
